Results as given in patent US20260000782A1, “ITGB2-MEDIATED DRUG DELIVERY SYSTEM” (TWINPIG BIOLAB INC., priority 2022, published 2026).

Tests used:
[1] = tested on: MDA-MB-231 human breast cancer cells, CAFs and THP-1 cells; test: Breast cancer 3D organoids (spheroids); format: cell-based; settings: day 10
Text: (§1) To complement the limitations in vitro and replace in vivo, a 3D organoid mimicking a tumor microenvironment (TME) of breast cancer was fabricated and an effect of TB511 thereon was confirmed. Specifically, an RPMI-1640 culture medium was mixed to contain 3% Matrigel, and THP-1 cells fabricated to express GFP using MDA-MB-231 human breast cancer cells, Cancer-associated Fibroblast (CAF), and Incucyte®Nuclight Lentivirus Reagents (Sartorius) were counted and dispensed into a 96 u-bottom 3-D culture plate (Sbio) at a ratio of 5:1:1 to be 200 μl. […] From day 2 of spheroid formation, TB511 was treated every three days at concentrations of 1 μM, 2 μM, 4 μM, and 8 μM, and images were taken using a fluorescence microscope. After taking bright-field images, the spheroid area was measured using a method for measuring a Ferret diameter. In addition, the average tumor spheroid diameter was measured using an open source, and the average diameter of three spheroids was analyzed with ImageJ (software version 1.47 m). The spheroid size was analyzed by taking bright-field images (20×), and then measuring the average tumor spheroid diameter of three spheroids with ImageJ (software version 1.47 m). […] For THP-1, images of GFP fluorescence expressed within the cells were taken using a confocal microscope without performing separate staining, and the number of cells expressing fluorescence was measured. […]

[2] = tested on: Docetaxel-resistant PC3 prostate cancer cells, CAFs, and THP-1 cells; test: Anticancer drug-resistant prostate cancer 3D organoids (spheroids); format: cell-based; settings: TB511 1, 2, 4 μM; day 10 after drug treatment; immunofluorescence
Text: as §1

[3] = tested on: M2 macrophages; test: Mitochondrial targeting of TB511 in M2 macrophages; format: cell-based, human; settings: M2 macrophages pretreated with ITGB2 antibody versus not pretreated
Text: In addition, in M2 macrophages, the caspase-3 expression was increased by TB511, whereas in M2 macrophages pretreated with the ITGB2 antibody, the caspase-3 expression was decreased by TB511 (FIG. 21). Additionally, as a result of confirming the mitochondrial targeting of TB511, in the M2 macrophages pretreated with ITGB2 antibody, co-localization of the mitochondria and TB511 was decreased compared to cells not pretreated with ITGB2 (FIG. 21).

[4] = tested on: A549 human lung cancer cells, CAFs, and THP-1 cells; test: Lung cancer 3D organoids (spheroids); format: cell-based
Text: To complement the limitations in vitro and replace in vivo, a 3D organoid mimicking a tumor microenvironment (TME) of breast cancer was fabricated and an effect of TB511 thereon was confirmed. Specifically, an RPMI-1640 culture medium was mixed to contain 3% Matrigel, and THP-1 cells fabricated to express GFP using MDA-MB-231 human breast cancer cells, Cancer-associated Fibroblast (CAF), and Incucyte®Nuclight Lentivirus Reagents (Sartorius) were counted and dispensed into a 96 u-bottom 3-D culture plate (Sbio) at a ratio of 5:1:1 to be 200 μl. After culturing, the cells were collected by centrifugation at 1200 rpm for 3 minutes and then cultured in a 37° C. incubator for 48 hours to form spheroids. From day 2 of spheroid formation, TB511 was treated every three days at concentrations of 1 μM, 2 μM, 4 μM, and 8 μM, and images were taken using a fluorescence microscope. After taking bright-field images, the spheroid area was measured using a method for measuring a Ferret diameter. In addition, the average tumor spheroid diameter was measured using an open source, and the average diameter of three spheroids was analyzed with ImageJ (software version 1.47 m). The spheroid size was analyzed by taking bright-field images (20×), and then measuring the average tumor spheroid diameter of three spheroids with ImageJ (software version 1.47 m). Additionally, on day 10 of drug treatment, immunofluorescent staining was performed by fixing spheroids and reacting with an antibody (abcam) against ki-67, a tumor proliferation factor (control staining: DAPI). For THP-1, images of GFP fluorescence expressed within the cells were taken using a confocal microscope without performing separate staining, and the number of cells expressing fluorescence was measured.
Lung cancer 3D spheroids were fabricated by mixing A549 human lung cancer cells, CAFs, and THP-1 cells using the method of Example 8-1 above, and then treated with TB511 at concentrations of 1 μM, 2 μM, and 4 μM, respectively, and the effects thereof were analyzed as in Example 8-1 above. […]

[5] = tested on: M2 macrophages; test: CCK-8 cell viability in M2 macrophages (control, ITGB2 knockdown, ITGB2 antibody pretreatment); format: cell-based, human
Description: As a cell model used to confirm whether apoptosis was induced through ITGB2 in M2 macrophages, a cell model in which the expression of ITGB2 was suppressed in M2 macrophages was fabricated using Crispr/cas9. Specifically, cells differentiated into M2 macrophages were cultured in an Opti-MEM medium. The Crispr/cas9 was mixed with Cas9 protein V2 (Thermo Fisher scientific) and gRNA (Genscript; ITGB2; Table 7) of a CRISPRMAX™ Reagent kit (Thermo Fisher scientific) and a Cas9 Plus™ Reagent (Thermo Fisher scientific), and a CRISPRMAX™ Reagent was diluted in the Opti-MEM medium, mixed together, and reacted for 5 to 10 minutes, and then added to cells differentiated into M2 macrophages and cultured at 37° C. for 2 to 3 days. Thereafter, the mRNA expression level of ITGB2 was confirmed.
To confirm whether Melittin-dKLA bound to ITGB2 to induce apoptosis in M2 macrophages, Melittin-dKLA (1 μM) was treated for 24 hours to M2 macrophages in which ITGB2 expression was suppressed by Crispr/cas9 fabricated in Example 7-1 above, and cell viability was analyzed using a CCK-8 assay. Specifically, Melittin-dKLA (1 μM) reacted with ITGB2 knockdown macrophages fabricated in Example 7-1 above for 1 hour. After the reaction, the medium was replaced and cultured at 37° C. for 24 hours. To determine cell viability, a CCK-8 reagent (Enzo Life Sciences) was added in 1/10 of the medium and reacted at 37° C. for 3 hours. Absorbance was measured at 450 nm using a microplate reader (Molecular Devices).
To confirm whether TB511 (TAMpep826-dKLA) induced apoptosis through ITGB2 in M2 macrophages, TB511 reacted with M2 macrophages in which ITGB2 expression was suppressed by Crispr/cas9 fabricated in Example 7-1 above.
To confirm whether TB511 induced apoptosis through ITGB2 in M2 macrophages, the M2 macrophages with suppressed ITGB2 expression fabricated in Example 7-1 above were pretreated with an anti-ITGB2 antibody (Polyclonal Rabbit anti-Human ITGB2/CD18 antibody) (LS-C312785; LS Bio) (1 μg) for 1 hour, and then reacted with TB511 (1 μM) for 1 hour. […]

[6] = tested on: M2 macrophages; test: Caspase expression in M2 macrophages (Western blot, Real-time PCR, immunofluorescence); format: cell-based, human; settings: TB511 1 μM
Description: To confirm whether TB511 induced apoptosis through ITGB2 in M2 macrophages, the M2 macrophages with suppressed ITGB2 expression fabricated in Example 7-1 above were pretreated with an anti-ITGB2 antibody (Polyclonal Rabbit anti-Human ITGB2/CD18 antibody) (LS-C312785; LS Bio) (1 μg) for 1 hour, and then reacted with TB511 (1 μM) for 1 hour. Thereafter, the induction of apoptosis was confirmed by cell viability analysis using the CCK-8 assay, protein expression of caspase-3, an apoptosis marker, was confirmed by Western blot analysis, gene expression of caspase-3, caspase-8, and caspase-9 was confirmed by Real-time PCR, and induction of protein expression of caspase-3 was confirmed by immunofluorescence.

[7] = tested on: Carboplatin-resistant A549 cells, CAFs, and THP-1 cells; test: Anticancer drug-resistant lung cancer 3D organoids (spheroids); format: cell-based, human; settings: TB511 1, 2, 4 μM; day 10 after drug treatment; immunofluorescence
Text: as §1

[8] = TB511 1, 2, 4 μM, day 10 after drug treatment, fluorescent staining
[9] = M2 macrophages pretreated with the ITGB2 antibody

## CC[C@H](C)[C@H](NC(=O)[C@H](CC(C)C)NC(=O)[C@H](C)NC(=O)[C@@H]1CCCN1C(=O)[C@H](CC(C)C)NC(=O)CNC(=O)[C@@H](NC(=O)[C@@H](NC(=O)[C@H](CC(C)C)NC(=O)[C@@H](N)C(C)C)[C@@H](C)O)[C@@H](C)O)C(=O)N[C@@H](CO)C(=O)N[C@@H](Cc1c[nH]c2ccccc12)C(=O)N[C@H](C(=O)N[C@@H](CCCCN)C(=O)N[C@@H](CCCNC(=N)N)C(=O)N[C@@H](CCCCN)C(=O)N[C@@H](CCCNC(=N)N)C(=O)N[C@@H](CCC(N)=O)C(=O)N[C@@H](CCC(N)=O)C(=O)NCC(=O)NCC(=O)NCC(=O)NCC(=O)N[C@@H](CO)C(=O)N[C@H](CCCCN)C(=O)N[C@H](CC(C)C)C(=O)N[C@H](C)C(=O)N[C@H](CCCCN)C(=O)N[C@H](CC(C)C)C(=O)N[C@H](C)C(=O)N[C@H](CCCCN)C(=O)N[C@H](CCCCN)C(=O)N[C@H](CC(C)C)C(=O)N[C@H](C)C(=O)N[C@H](CCCCN)C(=O)N[C@H](CC(C)C)C(=O)N[C@H](C)C(=O)N[C@H](CCCCN)C(=O)O)[C@@H](C)CC [TB511]
[1]; TB511 1, 2, 4, 8 μM every three days, versus untreated
  size of spheroids: decreased in a concentration-dependent manner from a concentration of 1 μM
[1]; TB511 1, 2, 4, 8 μM, versus drug-untreated group
  number of THP-1 cells expressing GFP fluorescence: significantly decreased in a concentration-dependent manner
[2]
  number of THP-1 cells: significantly decreased in a concentration-dependent manner
  tumor proliferation factor ki-67: tended to be reduced
[3]
  co-localization of the mitochondria and TB511: decreased
[4]; 1, 2, 4 μM, versus untreated
  size of spheroids: significantly reduced in a concentration-dependent manner
[4]; [8]
  number of THP-1 cells: significantly decreased in a concentration-dependent manner
  tumor proliferation factor ki-67: decreased in a concentration-dependent manner
[5]; M2 macrophages pretreated with the ITGB2 antibody (1 μg, 1 hour), then TB511 1 μM 1 hour, CCK-8
  cell viability: significantly increased
[5]; M2 macrophages, ITGB2 antibody 1 μg 1 hour or TB511 1 μM 1 hour, CCK-8
  cell viability: significantly reduced
[5]; cells where ITGB2 expression was suppressed (Crispr/cas9), TB511, versus M2 macrophages
  cell viability: significantly increased
[6]; [9]
  caspase-3 expression (immunofluorescence): decreased
  caspase-3 expression (protein, Western blot): significantly decreased
  expression of caspase-3, caspase-8, and caspase-9 (gene, Real-time PCR): significantly decreased
[6]; M2 macrophages
  caspase-3 expression (immunofluorescence): increased
  caspase-3 expression (protein, Western blot): significantly increased
  expression of caspase-3, caspase-8, and caspase-9 (gene, Real-time PCR): significantly increased
[7]
  number of THP-1 cells: significantly decreased in a concentration-dependent manner
  tumor proliferation factor ki-67: significantly decreased from 2 μM
